# Assay results: patent US7968543B2 (priority 2007, dated 2011)
# System: FLT3 phosphorylation in FLT3-ITD cell lines
# Experiment: Ex vivo plasma inhibitory activity, FLT3-ITD cell lines
# Details: plasma of study patients, 12 mg dose
smiles,measurement,value
"CC(C)(C)c1cc(NC(=O)Nc2ccc(-c3cn4c(n3)sc3cc(OCCN5CCOCC5)ccc34)cc2)no1 [N-(5-tert-butyl-isoxazol-3-yl)-N′-{4-[7-(2-morpholin-4-yl-ethoxy)imidazo[2,1-b][1,3]benzothiazol-2-yl]phenyl}urea]",FLT3 phosphorylation with patient plasma ex vivo,strongly suppressed
